The values that follow are results of earlier work, collected in patent US20160034667A1, “TAILORED DRUG THERAPIES AND METHODS AND SYSTEMS FOR DEVELOPING SAME” (COMPANION DX REFERENCE LAB, LLC, priority 2014, published 2016).

For data set [1], the system named is advanced NSCLC with ALK rearrangements.
Data set [2] relates to NSCLC patients having EGFR mutation. The note with it: FIG. 8 (B).
The test system of data set [3] is NSCLC patients with drug-sensitive EGFR mutations.

As for `C[C@@H](Oc1cc(-c2cnn(C3CCNCC3)c2)cnc1N)c1c(Cl)ccc(F)c1Cl` [crizotonib, Crizotinib], in data set [1] (a few patients), the adverse effect result is “life-threatening pneumonitis”. In addition, the response rates in data set [1] (advanced NSCLC, ALK rearrangements, progressed on previous therapy) was greater than 60%.

With `COc1cc2ncnc(Nc3ccc(F)c(Cl)c3)c2cc1OCCCN1CCOCC1` [gefitinib, Gefitinib], the “extension of life expediency on average over that of the standard chemotherapy” value in data set [2] is listed as 5.4 months. Besides, the “response in patients with drug-sensitive EGFR mutations at Exon 19 and 21” value in data set [3] is “significantly better response”.
